From PubChem BioAssay AID878 (University of Pittsburgh Molecular Library Screening Center, 2007)
Only a part is listed here, and it is no random draw. Some of these compounds have results that are not shown, active ones among them. The source made the active and inactive calls.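 Rule for the calls: active = activation of at least 50% relative to the plate's high and low controls in the primary single-dose screen; inactive = activation below 50%.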

assay: compounds producing H2O2 with reducing agent – biochemical, NIH compound library profiling, artefact control for MLSCN library redox annotation, primary screen (AID 878); settings: DTT-dependent redox cycling H2O2, phenol red/HRP absorbance; at 10 µM; stronger effect = higher value; 100% = 100 µM peroxide control, 0% = buffer;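 note: compound incubated with DTT at 0.8 mM final as the reducing agent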

**Q.** Which activation does the source give for CC(C)N1C(=O)CC2(CCN(CCOC(=O)C(O)(c3ccccc3)c3ccccc3)CC2)C1=O here?
**A.** inactive: 1.96%

**Q.** For O=C(NCC1(N2CCCCC2)CCCCC1)c1cc([N+](=O)[O-])ccc1Cl, which activation is on record?
**A.** inactive: -0.51%

**Q.** Which activation does the source give for CCN1CCCC(OC(=O)C2(O)c3ccccc3C=Cc3ccccc32)C1 (centres undefined) here?
**A.** inactive: -0.17%

**Q.** With C=CCN1CCN(CCOC(=O)C(O)(c2ccccc2)c2ccccc2)CC1 as the compound, how does the activation read?
**A.** inactive: 0.17%

**Q.** With CN(C)C1CCCC1OC(=O)C(O)(c1ccccc1)c1ccccc1 (centres undefined) as the compound, how does the activation read?
**A.** inactive: 0.04%

**Q.** With Cc1ccccc1C(=O)NCC1(N2CCCCC2)CCCCC1 as the compound, how does the activation read?
**A.** inactive: -1.98%

**Q.** For COc1cccc(C(=O)NCC2(N3CCCCC3)CCCCC2)c1, which activation is on record?
**A.** inactive: -1.77%

**Q.** Which activation does the source give for CN(C)c1cccc(C(=O)NCC2(N(C)C)CCCCC2)c1 here?
**A.** inactive: -0.13%

**Q.** For O=C(OC1CN2CCC1CC2)C(CO)(c1ccccc1)c1ccccc1 (centres undefined), which activation is on record?
**A.** inactive: -0.59%
